As usually defined, the IC50 is the point on the concentration scale where inhibition reaches its midpoint.

Sequences of proteins named here, by UniProt entry; tags and fusion partners are left off. Residues count along the entry.
UniProt P10636, 186-279 isoform 2 limits assumed: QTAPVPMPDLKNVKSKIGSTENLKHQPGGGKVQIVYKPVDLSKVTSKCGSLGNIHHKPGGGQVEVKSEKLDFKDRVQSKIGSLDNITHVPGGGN
UniProt P56817, 46-501 limits assumed: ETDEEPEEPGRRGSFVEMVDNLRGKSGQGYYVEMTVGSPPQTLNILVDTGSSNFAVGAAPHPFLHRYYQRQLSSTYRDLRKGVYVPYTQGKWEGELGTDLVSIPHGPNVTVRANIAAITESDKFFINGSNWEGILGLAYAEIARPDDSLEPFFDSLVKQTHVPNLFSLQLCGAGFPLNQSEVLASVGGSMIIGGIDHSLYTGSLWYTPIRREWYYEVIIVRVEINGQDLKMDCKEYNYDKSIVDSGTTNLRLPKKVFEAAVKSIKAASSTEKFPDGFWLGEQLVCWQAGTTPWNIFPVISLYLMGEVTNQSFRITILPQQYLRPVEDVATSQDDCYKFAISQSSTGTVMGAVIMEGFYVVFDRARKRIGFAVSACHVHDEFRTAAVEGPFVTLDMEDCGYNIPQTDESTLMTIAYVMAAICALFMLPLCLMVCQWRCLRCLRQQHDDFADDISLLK
UniProt P05067, 672-713 limits assumed: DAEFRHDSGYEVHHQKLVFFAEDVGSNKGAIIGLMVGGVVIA

Each structure is given as a SMILES string.

The values that follow come from patent publication US9399635B2, “Pyrazole derivative” (GREEN TECH CO., LTD., priority 2011, dated 2016).

What all share (type): biochemical
Test [1] deals with recombinant three-repeat microtubule-binding domain (3R-MBD) of tau protein (Homo sapiens, UniProt P10636). Nature of the test: Determination of tau aggregation inhibitory activity (heparin-induced, thioflavin T fluorescence; electron microscope). As to conditions: read-out: IC50 (μM) Test example 1 (tau aggregation inhibitory activity), 3R-MBD tau 10 μM, heparin 10 μM, 37° C. for 16 hours.

The target in test [2] is recombinant human β-secretase (Homo sapiens, UniProt P56817). Description: Determination of β-secretase inhibitory activity (BACE-1 FRET assay Kit). The settings on record: read-out: IC50 (μM) Test example 2 (β-secretase inhibitory activity), fluorescent substrate peptide, 1 hour.
The next test deals with Aβ 1-42 (Homo sapiens, UniProt P05067). Nature of the test: Determination of Aβ aggregation inhibitory activity (thioflavin T fluorescence). As to conditions: read-out: IC50 (μM) Test example 3 (Aβ aggregation inhibitory activity), Aβ 1-42, 37° C. for 24 hours.

In the case of `COc1cc(OCc2ccccn2)ccc1/C=C/c1cc(/C=C/c2cc([N+](=O)[O-])c3cc[nH]c3c2)[nH]n1`, the IC50 in test [1] was found to be 1.1 µM; in test [2] it was 0.85 µM; at Aβ 1-42, 0.58 µM.
